Measured values reported in PMC3985653, “A bacteriophage transcription regulator inhibits bacterial transcription initiation by σ-factor displacement” (2014).

Key:
internal_change = internal_change (UniProt P0A7Z4+P0A8V2+Q2NZX9+P0A800+P00579); assay: EMSA; conditions: scale: % decrease of sigma70-32P in RPo band vs no P7
[1] = molecular target: λCI-β’ NTD (Xo β’ residues 1–10 fused to the λ CI protein); assay: bacterial two-hybrid (BTH) interaction assay, β-galactosidase read-out; conditions: parent: est. 11000; read off a plot
[2] = molecular target: α-P7 fusion protein (P7 fused to the α-NTD), wild type; assay: as above; conditions: read off a plot

## GTTAGCTCACTCATTAGGCACCCCAGGCTTTACACTTTATGCTTCCGGCTCGTATAATGTGTGGAATTGTGAGCGGATAACAATTTCACACAGGAAACAG (double strand) [lacUV5 promoter [-64 to +36]]
internal_change
  binding signal: 50

## α-P7 fusion protein (P7 fused to the α-NTD), wild type F50A
[1]
  response: 1300 Miller units

## α-P7 fusion protein (P7 fused to the α-NTD), wild type L67A
[1]
  response: 8200 Miller units

## λCI-Ec β flap domain (aa residues 831–1057) (from UniProt P0A8V2) I905A
[2]; 20 µM IPTG, parent: est. 460
  response: 250 Miller units
[2]; 50 µM IPTG, parent: est. 490
  response: 260 Miller units
[2]; 100 µM IPTG, parent: est. 520
  response: 270 Miller units

## λCI-Ec β flap domain (aa residues 831–1057) (from UniProt P0A8V2) L901A
[2]; 20 µM IPTG, parent: est. 460
  response: 280 Miller units
[2]; 50 µM IPTG, parent: est. 490
  response: 300 Miller units
[2]; 100 µM IPTG, parent: est. 520
  response: 320 Miller units

## α-P7 fusion protein (P7 fused to the α-NTD), wild type V51A
[1]
  response: 900 Miller units
